# Assay: Comparative pharmacokinetic data in mice (plasma and brain)
# Settings: male swiss mice
# [1] = normalized at 1 mg of base/kg, 24 hours sampling
substance,measurement,setting,value
"(3S)-4-{4-[3-(3-methylpiperidin-1-yl)propoxy]phenyl}pyridine 1-oxide 1,2-ethanedisulfonate [Example 14]",ratio of plasma AUC over the AUC of the dihydrochloride tetrahydrate,,0.7
same,AUC brain,[1],676 ng·h/mg
same,AUC plasma,[1],438 ng·h/mg
